Laboratory results reported in patent publication US9944618B2, “Inhibiting neurotransmitter reuptake” (Mayo Foundation for Medical Education and Research, priority 2013, dated 2018).
pIC50: −log10 of the molar value.

Chains of the proteins cited; added tags and fusions are not shown. Lines headed by an entry give the natural chain unless they say otherwise; changes in a name come on top.
UniProt Q12809: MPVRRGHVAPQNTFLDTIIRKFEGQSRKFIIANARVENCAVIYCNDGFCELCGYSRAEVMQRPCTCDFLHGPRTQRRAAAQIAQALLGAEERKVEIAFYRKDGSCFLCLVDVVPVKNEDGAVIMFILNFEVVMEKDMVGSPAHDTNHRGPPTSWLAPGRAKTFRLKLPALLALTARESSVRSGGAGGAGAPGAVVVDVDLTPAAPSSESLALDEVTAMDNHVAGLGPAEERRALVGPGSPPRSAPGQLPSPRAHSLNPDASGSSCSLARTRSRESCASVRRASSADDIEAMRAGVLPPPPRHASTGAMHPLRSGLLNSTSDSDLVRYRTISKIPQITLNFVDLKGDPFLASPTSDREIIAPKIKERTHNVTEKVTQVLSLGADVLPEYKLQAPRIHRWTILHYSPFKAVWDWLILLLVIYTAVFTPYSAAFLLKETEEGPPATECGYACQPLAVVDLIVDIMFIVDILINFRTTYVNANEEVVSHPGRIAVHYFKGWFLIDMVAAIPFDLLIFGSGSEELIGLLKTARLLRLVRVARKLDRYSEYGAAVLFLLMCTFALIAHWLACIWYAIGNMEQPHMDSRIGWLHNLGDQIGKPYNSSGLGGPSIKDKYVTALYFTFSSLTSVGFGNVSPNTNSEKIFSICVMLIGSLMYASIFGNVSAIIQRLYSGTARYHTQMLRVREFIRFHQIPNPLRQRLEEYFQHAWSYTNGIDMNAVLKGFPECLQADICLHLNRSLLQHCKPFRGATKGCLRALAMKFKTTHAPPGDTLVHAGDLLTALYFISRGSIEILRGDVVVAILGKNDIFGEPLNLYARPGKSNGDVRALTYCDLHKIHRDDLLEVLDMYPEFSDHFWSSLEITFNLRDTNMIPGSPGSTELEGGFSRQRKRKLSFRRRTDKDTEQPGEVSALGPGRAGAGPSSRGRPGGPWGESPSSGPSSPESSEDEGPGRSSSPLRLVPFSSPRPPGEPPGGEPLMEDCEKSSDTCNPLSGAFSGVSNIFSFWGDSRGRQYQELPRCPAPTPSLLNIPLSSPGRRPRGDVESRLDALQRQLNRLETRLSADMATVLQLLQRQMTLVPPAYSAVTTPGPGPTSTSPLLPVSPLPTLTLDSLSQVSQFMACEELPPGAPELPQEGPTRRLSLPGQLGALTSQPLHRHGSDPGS

Molecular target: hERG (Homo sapiens (Human), UniProt Q12809)
Assay: Human ERG (hERG) assay, hERG currents in hERG-expressing CHO cells
Assay type: cell-based
Details: selected reference compounds

Fc1ccc(C(OCCN2CCN(CCCc3ccccc3)CC2)c2ccc(F)cc2)cc1 [compound 175]
pIC50: 6.33
